Experimental data from PubChem BioAssay AID686957 (The Scripps Research Institute Molecular Screening Center, 2013).
Calls of active or inactive are those of the source. No rule for the calls is given here.

Target: T-cell receptor (TCR)-CD3 interaction, human (TCR alpha chain TRAV4)
Test: IC50 for blocking TCR-CD3 binding – biochemical, fluorescence, TAMRA-labeled TCR probe, dose response (AID 686957)

IC50: inactive
SMILES: Oc1ccc(/C=N/NC(=S)Nc2cccnc2)c(O)c1O
